The values below come from US9050334B2, “MIF inhibitors and their uses” (INNOV88 LLC, priority 2010, dated 2015).

Sequences of proteins named here, by UniProt entry; tags and fusion partners are left off. Residues count along the entry.
UniProt P14174, 2-115 limits assumed: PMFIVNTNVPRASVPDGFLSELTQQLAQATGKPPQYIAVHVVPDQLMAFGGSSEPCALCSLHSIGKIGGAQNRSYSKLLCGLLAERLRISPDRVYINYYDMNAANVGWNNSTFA

In the assay the target is Native human MIF (Homo sapiens, UniProt P14174). In words: MIF tautomerase activity assay with hydroxyphenyl pyruvic acid (HPP) substrate. The settings on record: read-out: Tautomerase IC50, absorbance at 300 nm.

Take `Cn1c(=O)c(C#N)c(NC2CN(S(=O)(=O)c3cccs3)C2)c2ccccc21`: the IC50 fell in the range of 10 to 100 µM.

Broadly, the IC50 is the concentration that inhibits the measured activity by half.
